# Permeability data for macrocyclic peptides

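Conditions beyond the assay type are not listed; see the original paper. Other peptides of the study may be missing here. Entries at the database's floor value (log10 P of -10) are not listed.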

PAMPA measures passive passage through an artificial lipid membrane.
Values are log10 P with P in cm/s, so -5 is more permeable than -7.

| structure (SMILES) | PAMPA (log10 cm/s) |
|---|---|
| CC(C)C[C@@H]1NC(=O)[C@@H]2CCCN2C(=O)CN(Cc2ccccc2)C(=O)CN(Cc2ccccc2)C(=O)[C@H](C)NC(=O)[C@H]2CCCN2C(=O)[C@H](Cc2ccccc2)NC1=O | -6.37 |
| CCCN1CC(=O)N(Cc2ccccc2)CC(=O)N[C@@H](Cc2ccccc2)CC(=O)N2CCC[C@H]2C(=O)N[C@@H](CC(C)C)C(=O)N[C@@H](Cc2ccccc2)C(=O)N2CCC[C@H]2C1=O | -6.28 |
| CCCN1CC(=O)N(Cc2ccccc2)CC(=O)N[C@@H](CC(C)C)C(=O)N2CCC[C@@H]2C(=O)N(Cc2ccccc2)CC(=O)N[C@@H](Cc2ccccc2)C(=O)N2CCC[C@@H]2C1=O | -5.59 |
| CC(C)C[C@H]1C(=O)N[C@@H](Cc2ccccc2)C(=O)N2CCC[C@@H]2C(=O)N(C)[C@@H](C)C(=O)N(Cc2ccccc2)CC(=O)N(Cc2ccccc2)CC(=O)N2CCC[C@H]2C(=O)N1C | -5.19 |
| CC(C)C[C@H]1NC(=O)[C@H]2CCCN2C(=O)[C@@H](CC(C)C)NC(=O)CN(Cc2ccccc2)C(=O)C[C@H](Cc2ccccc2)NC(=O)[C@H](Cc2ccccc2)NC1=O | -5.98 |
| CC(C)C[C@@H]1C(=O)N2CCC[C@H]2C(=O)N(C)[C@H](CC(C)C)C(=O)N[C@@H](Cc2ccccc2)C(=O)N2CCC[C@@H]2C(=O)N[C@@H](Cc2ccccc2)CC(=O)N(Cc2ccccc2)CC(=O)N1C | -5.58 |
| CC(C)C[C@H]1C(=O)N(Cc2ccccc2)CC(=O)N2CCC[C@H]2C(=O)N(Cc2ccccc2)CC(=O)N[C@@H](Cc2ccccc2)C(=O)N2CCC[C@@H]2C(=O)N[C@@H](Cc2ccccc2)CC(=O)N1C | -5.81 |
| CCCN1CC(=O)N(Cc2ccccc2)CC(=O)N[C@@H](Cc2ccccc2)CC(=O)N2CCC[C@@H]2C(=O)N[C@H](CC(C)C)C(=O)N[C@@H](Cc2ccccc2)C(=O)N2CCC[C@H]2C1=O | -6.44 |
| CCCN1CC(=O)N[C@@H](CC(C)C)C(=O)N(C)[C@@H](CC(C)C)C(=O)N2CCC[C@@H]2C(=O)N(Cc2ccccc2)CC(=O)N[C@@H](Cc2ccccc2)C1=O | -5.13 |
| CCCN1CC(=O)N[C@@H](CC(C)C)C(=O)N(C)[C@@H](CC(C)C)C(=O)N2CCC[C@H]2C(=O)N(Cc2ccccc2)CC(=O)N[C@@H](Cc2ccccc2)C1=O | -4.99 |
| CC(C)C[C@@H]1NC(=O)[C@@H]2CCCN2C(=O)[C@H](CC(C)C)NC(=O)CN(Cc2ccccc2)C(=O)[C@H](C)NC(=O)[C@@H]2CCCN2C(=O)[C@H](Cc2ccccc2)NC1=O | -6.27 |
| CCCN1CC(=O)N(C)[C@@H](CC(C)C)C(=O)N(Cc2ccccc2)CC(=O)N2CCC[C@@H]2C(=O)N(Cc2ccccc2)CC(=O)N[C@@H](Cc2ccccc2)C1=O | -5.70 |
| CC(C)C[C@@H]1C(=O)N[C@H](CC(C)C)C(=O)N2CCC[C@@H]2C(=O)N(Cc2ccccc2)CC(=O)N[C@@H](Cc2ccccc2)C(=O)N2CCC[C@@H]2C(=O)N[C@@H](Cc2ccccc2)CC(=O)N1C | -5.91 |
| CC(C)C[C@H]1C(=O)N[C@@H](Cc2ccccc2)CC(=O)N2CCC[C@@H]2C(=O)N(Cc2ccccc2)CC(=O)N[C@@H](Cc2ccccc2)C(=O)N[C@@H](C)C(=O)N1C | -5.99 |
| CC(C)C[C@H]1NC(=O)[C@H]2CCCN2C(=O)C[C@H](Cc2ccccc2)NC(=O)CN(Cc2ccccc2)C(=O)[C@H](C)N(C)C(=O)[C@H](Cc2ccccc2)NC1=O | -5.90 |
| CC(C)C[C@H]1C(=O)N[C@@H](Cc2ccccc2)CC(=O)N2CCC[C@H]2C(=O)N(Cc2ccccc2)CC(=O)N[C@@H](Cc2ccccc2)C(=O)N[C@@H](C)C(=O)N1C | -6.12 |
| CC(C)C[C@H]1NC(=O)C[C@H](Cc2ccccc2)NC(=O)[C@H](Cc2ccccc2)NC(=O)[C@H](CC(C)C)N(C)C(=O)[C@@H]2CCCN2C(=O)CN(Cc2ccccc2)C1=O | -5.57 |
| CCCN1CC(=O)N[C@H](CC(C)C)C(=O)N[C@@H](Cc2ccccc2)CC(=O)N2CCC[C@@H]2C(=O)N(C)[C@H](CC(C)C)C(=O)N[C@@H](Cc2ccccc2)C1=O | -5.33 |
| CC(C)C[C@H]1C(=O)N(Cc2ccccc2)CC(=O)N2CCC[C@H]2C(=O)N(Cc2ccccc2)CC(=O)N[C@@H](Cc2ccccc2)C(=O)N[C@@H](Cc2ccccc2)CC(=O)N1C | -5.46 |

Again, the 3 entries with the lowest PAMPA:

| structure (SMILES) | PAMPA (log10 cm/s) |
|---|---|
| CCCN1CC(=O)N(Cc2ccccc2)CC(=O)N[C@@H](Cc2ccccc2)CC(=O)N2CCC[C@@H]2C(=O)N[C@H](CC(C)C)C(=O)N[C@@H](Cc2ccccc2)C(=O)N2CCC[C@H]2C1=O | -6.44 |
| CC(C)C[C@@H]1NC(=O)[C@@H]2CCCN2C(=O)CN(Cc2ccccc2)C(=O)CN(Cc2ccccc2)C(=O)[C@H](C)NC(=O)[C@H]2CCCN2C(=O)[C@H](Cc2ccccc2)NC1=O | -6.37 |
| CCCN1CC(=O)N(Cc2ccccc2)CC(=O)N[C@@H](Cc2ccccc2)CC(=O)N2CCC[C@H]2C(=O)N[C@@H](CC(C)C)C(=O)N[C@@H](Cc2ccccc2)C(=O)N2CCC[C@H]2C1=O | -6.28 |

Data: CycPeptMPDB; original report Townsend et al. 2020, doi:10.26434/chemrxiv.13335941.v1.